{"sequences": {"note": "By UniProt entry, the sequences of proteins in these tests, tags left out. Where a name states a change or a piece, a line headed by the entry shows the natural chain unless it says otherwise.", "UniProt P14416, whole entry": "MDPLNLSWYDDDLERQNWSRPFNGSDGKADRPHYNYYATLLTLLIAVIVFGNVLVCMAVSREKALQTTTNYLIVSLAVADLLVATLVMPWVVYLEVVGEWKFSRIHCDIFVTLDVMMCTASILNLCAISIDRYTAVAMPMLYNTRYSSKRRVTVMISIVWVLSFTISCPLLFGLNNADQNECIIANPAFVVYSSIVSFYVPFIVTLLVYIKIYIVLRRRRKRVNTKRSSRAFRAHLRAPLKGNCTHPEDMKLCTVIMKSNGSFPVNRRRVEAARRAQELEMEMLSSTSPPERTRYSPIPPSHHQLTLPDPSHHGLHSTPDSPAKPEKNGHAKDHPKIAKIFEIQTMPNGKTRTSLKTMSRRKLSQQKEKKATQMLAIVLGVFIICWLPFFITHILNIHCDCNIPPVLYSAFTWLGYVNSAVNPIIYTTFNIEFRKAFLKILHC"}, "source": "paper PMC8967833", "about": "“An original approach to measure ligand/receptor binding affinity in non-purified samples” (Scientific Reports, 2022)", "target": "T1, dopamine D2 receptor (D2R) (Homo sapiens, UniProt P14416)", "T1 construct": "gene DRD2; D2R in non-purified membrane fragments of induced HekD2 cells", "assay": "MST saturation binding with fluorescent ligand on cell membrane fragments, non-specific binding subtracted"}
{"substance": "spiperone—Cy5", "values": [{"measurement": "Kd", "result": "5.3 ± 1.7", "unit": "nM"}]}
